We go through seven compounds from US7550431B2, “Spatially-defined macrocycles incorporating peptide bond surrogates” (Tranzyme Pharma Inc., priority 2003, dated 2009).

Sequences of proteins named here, by UniProt entry; tags and fusion partners are left off.
UniProt O43193, whole entry: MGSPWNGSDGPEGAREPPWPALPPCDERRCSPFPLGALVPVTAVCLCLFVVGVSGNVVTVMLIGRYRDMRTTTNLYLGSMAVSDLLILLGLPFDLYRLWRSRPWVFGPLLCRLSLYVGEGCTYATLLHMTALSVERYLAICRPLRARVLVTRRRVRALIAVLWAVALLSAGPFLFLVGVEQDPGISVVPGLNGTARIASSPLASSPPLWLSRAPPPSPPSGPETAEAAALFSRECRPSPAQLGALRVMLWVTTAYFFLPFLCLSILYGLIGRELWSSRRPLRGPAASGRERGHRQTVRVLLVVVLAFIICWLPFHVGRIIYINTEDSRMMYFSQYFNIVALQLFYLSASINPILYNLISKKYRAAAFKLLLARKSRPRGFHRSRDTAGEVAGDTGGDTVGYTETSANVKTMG
UniProt Q92847, whole entry: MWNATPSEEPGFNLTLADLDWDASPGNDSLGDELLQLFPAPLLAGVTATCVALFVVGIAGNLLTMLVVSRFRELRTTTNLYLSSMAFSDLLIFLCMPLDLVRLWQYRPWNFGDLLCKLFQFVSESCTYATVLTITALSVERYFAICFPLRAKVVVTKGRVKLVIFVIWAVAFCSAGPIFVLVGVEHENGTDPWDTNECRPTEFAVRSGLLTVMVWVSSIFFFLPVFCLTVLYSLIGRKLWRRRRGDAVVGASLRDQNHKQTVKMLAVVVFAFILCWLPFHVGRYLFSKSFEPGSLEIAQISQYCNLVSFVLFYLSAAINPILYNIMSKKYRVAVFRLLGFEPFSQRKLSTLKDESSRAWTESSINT

SMILES strings stand for the structures.

For the first assay, the target named is human motilin receptor (Homo sapiens, UniProt O43193). In words: Competitive radioligand binding assay (motilin receptor), Method B1. To be noted: read-out: Binding Activity [Ki (nM)], [125I]-motilin competition, CHO cell membranes.
With `CCC[C@@H]1OC(=O)[C@@H](C(C)C)NC(=O)[C@@H](Cc2ccc(O)cc2)NCCOc2ccccc2CCCNC1=O`, the Ki (usually the equilibrium dissociation constant of an inhibitor or competing ligand from its target) lay in the range of 100 to 1000 nM.

Take `CCC[C@@H]1NC(=O)[C@@H](C(C)C)NC[C@@H](Cc2ccc(O)cc2)NCCOc2ccccc2CCCNC1=O`: the inhibition constant (Ki) lay in the range of 1000 to 10000 nM. On the same count and under the same terms, the figure for `CCC[C@@H]1NC(=O)[C@H](C(C)C)/C=C/[C@@H](Cc2ccc(OC)cc2)NCCOc2ccccc2CCCNC1=O` is 1000 to 10000 nM.

For another assay, the target named is human ghrelin receptor (hGHS-R1a) (Homo sapiens, UniProt Q92847). In words: Competitive radioligand binding assay (ghrelin receptor), Method B2. To be noted: read-out: Binding Activity [Ki (nM)], [125I]-ghrelin competition, HEK-293 cell membranes.
Regarding `CC1C(=O)NC(Cc2ccc(F)cc2)C(=O)NCCOCCOCCNC(C2CC2)C(=O)N1C` (stereo not shown), the Ki was 1000 to 10000 nM. Regarding `CCC(C)[C@@H]1NCCCCCCNC(=O)[C@@H](Cc2ccc(F)cc2)NC(=O)[C@@H](C)N(C)C1=O` (stereo partly shown), the inhibition constant (Ki) is 1000 to 10000 nM. Same read-out and setting: the value for `CCC(C)[C@@H]1NCCOc2ccccc2C=CCNC(=O)N(Cc2ccccc2)NC(=O)[C@@H](C)N(C)C1=O` (stereo partly shown) was 1000 to 10000 nM; that for `CCC[C@@H]1NCc2ccccc2Sc2ccccc2CNC(=O)[C@@H](Cc2ccccc2)NC(=O)CN(C)C1=O` was 100 to 1000 nM.
